Measured values reported in patent publication US5180831A (priority 1990, dated 1993).

Experiment: Adjunct efficacy test (reactivator with 2-PAM) against GD in mice
Conditions: 3a plus 2-PAM, Soman

C[n+]1cccc(O)c1C=NNC(N)=O.[Cl-] [Compound 3a, 2-[[(Aminocarbonyl)hydrazono]methyl]-3-hydroxy-1-methyl pyridinium chloride]
efficacy compared with HI-6: more effective than HI-6
